AlphaSeq binding of Ab-14 heavy chain variants to a spike HR2 peptide

The target is the same throughout: PDVDLGDISGINAS, from the HR2 region of SARS-CoV-2 spike.

Parent scFv Ab-14: VH joined to VL by a (GGGGS)3 linker. Changes lie in the heavy chain CDRs alone.
VH: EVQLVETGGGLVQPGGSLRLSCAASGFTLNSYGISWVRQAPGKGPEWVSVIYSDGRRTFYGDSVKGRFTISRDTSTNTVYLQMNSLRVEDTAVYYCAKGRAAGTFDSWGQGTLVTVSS
VL: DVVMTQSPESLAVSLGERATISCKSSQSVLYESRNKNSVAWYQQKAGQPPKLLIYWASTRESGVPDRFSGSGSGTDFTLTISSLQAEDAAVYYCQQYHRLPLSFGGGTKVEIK

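The parent was found by panning a naive human phage display library on the peptide. This is the validation round: designs drawn from the data on random variants, tested in the same kind of assay. Several design methods are mixed in this list. The assay is AlphaSeq: two haploid yeast populations carry antibody and antigen on their surface. After mating in shaken culture at 30 °C for 16 h, diploids were selected and their barcode pairs sequenced. The ratio of observed to expected reads was calibrated, replicate by replicate, on BCL2-family standards whose Kd was known from biolayer interferometry. There are six technical replicates.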

The parent's heavy chain CDRs are GFTLNSYGIS, VIYSDGRRTFYGDSVK, GRAAGTFDS; each variant's own CDRs replace them letter for letter. The read-out is the apparent dissociation constant on a log10 scale (nM): the lower, the stronger. The mean shown is taken over the replicates in which the pair was detected. "not detected" means that the variant was in the library but no mating with the target was seen in any replicate; the authors take this as a sign of poor binding, and no number exists. Background: pairings of all heavy chain designs with three empty control strains gave a value in 1% of cases (median 2.08, 5th percentile 0.84). Values in that range, when seen in few replicates, are hard to tell from nonspecific mating. Values of this round are not directly comparable with the first-round values of the same sequences. The authors averaged sequences with at least three values out of six and counted those with two or fewer as poor binders. Of ten entries with the parent sequence, four were seen in most replicates (averages 0.34 to 2.37), three in one and three in none, so single entries are noisy.

| CDR-H1 | CDR-H2 | CDR-H3 | log10 Kd (nM), mean | detected |
|---|---|---|---|---|
| GFDLNEYGIS | VIYADGMRTAYADNVK | GEQAGTFDV | -0.18 | 6/6 |
| GQTLNSYGIS | VIYSDGRRTFYGDSVK | GMAAGTFSI | not detected | 0/6 |
| GFTLGSYGIS | VIYSDGERTFYIDSVK | GAAAGTFDS | 1.57 | 6/6 |
| GNTLNEYGIS | VIYSDGRRTFYSDSVK | GRCAGTFDS | 1.31 | 6/6 |
| GFGLNEYGIS | VIYSDGRRTFYHDSVK | GRAAGTFDS | 0.12 | 6/6 |
| GQDLAEYGIS | VIYADGKRTYYAQNVK | GTNVGQGDT | not detected | 0/6 |
| GFSLTSYGIS | VIYSDGRRTFYGDSVK | IRAAGHFDS | not detected | 0/6 |
| GFTLNEYGIS | VIYSDGRRTFYHDSVK | GRAAGCFDS | 0.79 | 6/6 |
| GFDLNMYGIS | VIYSDGKRTFYGDSVK | GRTAGTFDS | 0.17 | 6/6 |
| GFTLNNYGIS | VIYSDGRRTFYIDSVK | GRAAGTFDS | 2.22 | 5/6 |
| GFDIEEYGIS | VIYADGVRTAYSQNFK | VGNTFALDI | not detected | 0/6 |
| GFSLEEYGIS | VIYADGMRTFYAEKVK | GNFDLQEGY | not detected | 0/6 |
| GFDLNEYGIS | VIYADGMRTFYSDSVK | GNTAGTFDV | -0.18 | 6/6 |
| GFTLNSYGIS | VIYADGRRTFYGDRVK | GRAAGTFDS | 0.94 | 6/6 |
| GFELNEYGIS | VIYADGRRTFYGDSVK | GRAAGTFDS | -0.37 | 6/6 |
| GFQLDEYGIS | VIYADGRRTFYQDSVK | GEVAGTFDF | -0.16 | 6/6 |
| GFDIEEYGIS | VIYADGSRTVYSDSVK | SGRTFNMDL | not detected | 0/6 |
| GLTLNSYGIS | VIYADGRRTFYNDSVR | GRAAGTFDS | 1.73 | 6/6 |
| GFDLNEYGIS | VIYADGRRTAYADKVK | GNVAGTFDL | -0.53 | 6/6 |
| GFDLEKYGIS | VIYADGYRSAYAQNVK | GGHAGGFHV | not detected | 0/6 |
| GFSLNSYGIS | VIYSDGKRTFYGDSVK | GSAAGTFDL | 0.24 | 6/6 |
| GFTLYEYGIS | VIYSDGRRTFYGDSVK | GRAAGTFDT | 1.32 | 6/6 |
| GNVLDEYGIS | VIYADGMRTSYAQNFK | GIEGDNFMT | not detected | 0/6 |
| GFDLNEYGIS | VIYADGQRTYYADSVK | GNQAGTFDV | -0.45 | 6/6 |
| GFDLNSYGIS | VIYSDGRRTFYIDSVK | GREAGTFNM | 0.28 | 6/6 |
| GFDLNEYGIS | VIYADGRRTFYADSVK | GNVGGSFDV | 0.22 | 6/6 |
| GFTLNEYGIS | VIYSDGRRTFYGGSVK | GRAASTFDL | not detected | 0/6 |
| GFQLNSYGIS | VIYSDGRRTFYGDSVK | GRTAGTFDT | 0.37 | 6/6 |
| GFDLNEYGIS | VIYADGRRTFYADSVK | GKNAGTIDV | -0.44 | 6/6 |
| GFALNSYGIS | VIYSDGRRTFYVDSVK | GQLAGTFDS | 1.61 | 5/6 |
| GFTLDSYGIS | VIYSDGRRTFYGDSVK | GRTAGTFDS | 1.45 | 6/6 |
| GFSLNEYGIS | VIYADGKRSHYADSVK | GLISGFFDI | not detected | 0/6 |
| GFQLDEYGIS | VIYADGRRTFYTDSVK | GGNAGTFDV | -0.88 | 6/6 |
| GFDLNSYGIS | VIYSDGRRTFYIDSVK | GVAAGTFDS | -0.04 | 6/6 |
| GKTLNSYGIS | VIYADGRRTFYGDSVK | GKAAGTFDS | 0.77 | 6/6 |
| GFTLNEYGIS | VIYSDGRRVFYGDSSK | GRAAGTFDS | 2.56 | 1/6 |
| GFQLNEYGIS | VIYSDGRRTFYDDSVK | GRHAGTFDS | 0.12 | 6/6 |
| GFSLNSYGIS | VIYSDGRRTFYSDSVK | GRNAGTFDS | not detected | 0/6 |
| GFDLNEYGIS | VIYADGKRTAYADSVK | GNEAGTFDM | -0.35 | 6/6 |
| GEDLDEYGIS | VIYADGLRTAYSDNFK | GHLGGQFDM | not detected | 0/6 |
| GFELNSYGIS | VIYSDGRRTFYHDSVK | GREAGTFDP | not detected | 0/6 |
| GFDLNEYGIS | VIYADGRRTQYIDSVK | GNQAGTFDV | -0.22 | 6/6 |
| GFDLNEYGIS | VIYADGKRTFYTDSVK | GTNAGTFDV | 0.04 | 6/6 |
| GFDLNEYGIS | VIYADGMRTYYADDVK | GEVAGTFDV | -0.48 | 6/6 |
| GFDLNSYGIS | VIYSDGRRNFYGDSVK | GRADGKFDS | 1.92 | 1/6 |
| GFSLNSYGIS | VIYSDGRRTFYVDSVK | GQAAGTFDT | 0.84 | 6/6 |
| GFTLNEYGIS | VIYSDGRRTFYGLSKK | GRAAVTFDQ | not detected | 0/6 |
| GFWLNDYGIS | VIYADGRRTFYGDSVK | GRAAGTFDS | 0.54 | 6/6 |
| GFTLNSYGIS | VIYSDGQRTFYSDSVK | GRSAGTFDS | 0.94 | 6/6 |
| WFDLNSYGIS | VIYSDGRRTFYADSVK | GRTAGTFDS | 0.18 | 6/6 |
| GFTNNSYGIS | VIYSDGRRLFYGDSVK | CRAADTFDS | not detected | 0/6 |
| GESLNEYGIS | VIYADGLRSKYADKFK | GQLAGYGDV | not detected | 0/6 |
| GFTLNSYGIS | VIYSDGRRTFYSDSVK | GVVAGTFDS | -0.42 | 6/6 |
| GFDLNSYGIS | VIYSDGKRTFYDDNVK | GRTAGTFDS | 0.14 | 6/6 |
| GFSLNTYGIS | VIYSDGRRTFYKDSVK | GQAAGTFDS | 1.03 | 1/6 |
| GDDLAEYGVS | VIYADGKRTKYSDHVK | GENGGFFDA | not detected | 0/6 |
| GFTLNSYGIS | VIYADGRRTFYGDSVK | GRAAGWFDS | not detected | 0/6 |
| GFTINSYGIS | VIYSDGRRTFYSDSVK | GQAAGTFDS | 1.32 | 5/6 |
| GFSLNSYGIS | VIYSDGRRTFYADAVK | GEAAGTFDS | 0.46 | 6/6 |

The opening 3 entries, copied out:

CDR-H1	CDR-H2	CDR-H3	log10 Kd (nM), mean	detected
GFDLNEYGIS	VIYADGMRTAYADNVK	GEQAGTFDV	-0.18	6/6
GQTLNSYGIS	VIYSDGRRTFYGDSVK	GMAAGTFSI	not detected	0/6
GFTLGSYGIS	VIYSDGERTFYIDSVK	GAAAGTFDS	1.57	6/6

From the AlphaSeq antibody data of Li et al. 2023 (doi:10.1038/s41467-023-39022-2), copy in the FLAb collection.